miR-21 reporter: miR-21 reporter, rising signal | 340,000 tested, under 10 active | AID 2288 | HeLa miR-21 FLuc reporter, luciferase, 48 h | Potency, µM (titrated, usually from 38.3 µM), for inactives: at the highest dose reporter change, positive = more light; active = well fitted rising curve with a large enough effect; inconclusive = small, poorly fitted or top-dose-only effect; inactive = no such curve, though single readings can be large or run the other way;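 further: % of control where 0% means no effect; miR-21 action dims this reporter so a rising signal means less miR-21 action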
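HeLa cells stably expressing CMV-driven firefly luciferase with a downstream miR-21 binding sequence, endogenously expressing miR-21, were treated with titrations (up to about 40uM final) for 48 hours at 37 degree Celsius. Luciferase luminescence was read after lysis.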
DT40 TDP1 CPT: DT40-hTDP1 cell growth loss with CPT | chicken DT40 Tdp1-/-;hTDP1 cells + 20 nM CPT, ATP luminescence, 48 h | Potency, µM (series often up to 46.2 µM), for inactives: top-dose activity change, negative = growth inhibition, actives largely listed as inhibitors | 12% of 420,000 active; further: potency means the concentration at half of the fitted maximal effect; on the % scale 0 is the no-effect control and ±100 the full control effect; nearly all actives have a fitted effect of over 55% in size
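Chicken DT40 Tdp1-/- cells stably complemented with human TDP1 were seeded at 400 cells/well in medium containing 20 nM camptothecin, exposed to pin-transferred compounds, and grown at 37 °C for at least 48 hr. Viability was read as ATP luminescence.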
TDP1 inh: TDP1 (human) enzyme inhibition | Q9NUW8 | recombinant TDP1, AlphaScreen DNA substrate cleavage | Potency, µM (doses to about 130 µM), for the others: at the top dose activity change, negative = inhibition, usual class: inhibitors | 0.28% of 350,000 active | AID 485290; further: potency means the concentration at half of the fitted maximal effect; on the % scale 0 is the no-effect control and ±100 the full control effect; nearly all actives have a fitted effect of over 40% in size
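Compounds were preincubated with Tdp1 (1 nM final) for 15 min at room temperature before substrate (15 nM final) started a 5 min reaction; beads (10 ug/ml final) were then added for 10 min before AlphaScreen detection.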
DT40 TDP1 no CPT: qHTS for Inhibitors of human tyrosyl-DNA phosphodiesterase 1 (TDP1): qHTS in cells in absence of CPT; DT40 Tdp1-/- hTDP1 cells, no CPT, ATP luminescence, 48 h; Potency, µM (highest dose often 46.2 µM), inactives show top-dose activity change, negative = growth inhibition, actives largely listed as inhibitors; 15% of 420,000 active; further: potency means the concentration at half of the fitted maximal effect; on the % scale 0 is the no-effect control and ±100 the full control effect; nearly all actives have a fitted effect of over 55% in size
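Growth of hTDP1-complemented DT40 Tdp1-knockout cells is measured by ATP luminescence after at least 48 hr compound exposure at 37 °C, with DMSO substituting for the 20 nM CPT used in the parallel screen.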
uPA surface inh: blocks generation of uPA at the cell surface. 0.31% of 330,000 active. cell surface uPA generation assay, qHTS. Potency, µM (series often up to 38.3 µM), for the others: at the highest dose activity change, negative = inhibition, usual class: inhibitors. AID 540303; active means well fitted inhibition curve with a large enough effect; inconclusive means small, poorly fitted or top-dose-only effect; inactive means no such curve, though single readings can be large or run the other way; tested in mouse RAW 264.7 cells; further: potency means the concentration at half of the fitted maximal effect; on the % scale 0 is the no-effect control and ±100 the full control effect; nearly all actives have a fitted effect of over 55% in size
An asterisk follows results filed as active; ? = inconclusive; / = not tested or not shown. This is a sample that favours compounds with a hit; in the whole collection about 16% have one here. Unless noted, the call rests on the fitted dose curve; in most records, active means well fitted curve in the direction sought with a large enough effect; inconclusive means small, poorly fitted or top-dose-only effect, or another doubt; inactive means no such curve, though single readings can be large; an effect the other way counts as inactive or inconclusive.

Order of results: miR-21 reporter, DT40 TDP1 CPT, TDP1 inh, DT40 TDP1 no CPT, uPA surface inh
CCOC(=O)[C@@H]1[C@H]2COc3ccc(Br)cc3[C@@H]2N2C(=O)N(c3ccc(Br)cc3)C(=O)[C@@]12C
    /, ?, 0%, ?, 10%
COc1ccccc1CN1CC(C(=O)N(C)Cc2[nH]c3ccccc3c2C)CCC1=O (configuration not stated)
    -13%, ?, 6%, ?, 10%
O=C(CN1CCSCC1)N/N=C/c1cccc(Cl)c1
    -14%, -18%, -2%, -15%, -16%
CCCCC[C@@H]1[C@H]2[C@H]3C(=O)N(c4ccccc4)C(=O)[C@H]3CC(=O)[C@H]2[C@H](c2ccccc2)N1S(=O)(=O)c1ccc(C)cc1
    /, 20%, /, 2%, /
CCOC(=O)[C@@H]1[C@H]2COc3ccccc3[C@@H]2N2C(=O)N(c3ccc(C(F)(F)F)cc3)C(=O)[C@@]12C
    /, 13µM*, 1%, 23µM*, -15%
O=C(N/N=C\c1cccc(Cl)c1)c1ccc(Cn2cc(Br)c([N+](=O)[O-])n2)o1
    -5%, -5%, -4%, -26%, -4%
COc1ccc(CCN(Cc2cc3cc(C)cc(C)c3nc2Cl)C(=O)C2CC2)cc1
    6%, ?, -9%, 16µM*, -7%
COc1ccc(Cl)cc1NC(=O)CCS(=O)(=O)c1nc(-c2cccs2)cc(C(F)(F)F)n1
    ?, 4.6µM*, 6%, 3.3µM*, /
O=C(CCS(=O)(=O)c1nc(-c2cccs2)cc(C(F)(F)F)n1)Nc1ccc(F)c(Cl)c1
    ?, 4.6µM*, 6%, 9.2µM*, /
N#Cc1c(C(F)(F)F)cc(-c2cccs2)nc1SCC(=O)Nc1cccc(Cl)c1
    -4%, -26%, -4%, -25%, /

3 entries from above, sorted by count of non-hydrogen atoms, falling:
Order of results: miR-21 reporter, DT40 TDP1 CPT, TDP1 inh, DT40 TDP1 no CPT, uPA surface inh
CCOC(=O)[C@@H]1[C@H]2COc3ccc(Br)cc3[C@@H]2N2C(=O)N(c3ccc(Br)cc3)C(=O)[C@@]12C
    /, ?, 0%, ?, 10%
COc1ccccc1CN1CC(C(=O)N(C)Cc2[nH]c3ccccc3c2C)CCC1=O (configuration not stated)
    -13%, ?, 6%, ?, 10%
O=C(N/N=C\c1cccc(Cl)c1)c1ccc(Cn2cc(Br)c([N+](=O)[O-])n2)o1
    -5%, -5%, -4%, -26%, -4%

(cont.)
Order of results: miR-21 reporter, DT40 TDP1 CPT, TDP1 inh, DT40 TDP1 no CPT, uPA surface inh
COc1ccc(NC(=O)CCS(=O)(=O)c2nc(-c3cccs3)cc(C(F)(F)F)n2)cc1
    ?, 4.6µM*, 6%, 5.2µM*, /
CC(C)c1nnc(NC(=O)CCS(=O)(=O)c2nc(-c3cccs3)cc(C(F)(F)F)n2)s1
    ?, 2.9µM*, 0%, 4.1µM*, -14%
O=C(CCS(=O)(=O)c1nc(-c2cccs2)cc(C(F)(F)F)n1)Nc1ccc(OC(F)(F)F)cc1
    ?, ?, 6%, -24%, /
COc1ccccc1NC(=O)CSc1nnc(-c2ccoc2C)o1
    /, ?, 1%, ?, -10%
CN(Cc1nccn1C)C(=O)CC1C(=O)NCCN1Cc1ccccc1C(F)(F)F (configuration not stated)
    -2%, ?, 5%, -4%, -1%
COc1ccc2cc(CN(Cc3ccco3)C(=S)NCC3CCCO3)c(=O)[nH]c2c1 (configuration not stated)
    -2%, ?, 6%, ?, 0%
Cc1ccc2[nH]c(=O)c(CN(Cc3cccs3)C(=S)NCC3CCCO3)cc2c1 (configuration not stated)
    -1%, ?, -5%, 13µM*, -5%
Cc1cc(C)c2cc(CN(Cc3ccco3)C(=S)NCC3CCCO3)c(=O)[nH]c2c1 (configuration not stated)
    -3%, 18µM*, 6%, 16µM*, 13%
CCOC(=O)N1CCC(N2C(=O)c3ccc(C(=O)NCc4ccc(F)cc4)cc3C2=O)CC1
    -2%, 1%, 8%, -23%, 1%
O=C(CCNS(=O)(=O)c1ccccc1)NCC1CCCCC1
    /, -8%, -4%, -27%, -4%

(listing goes on)
Key to letters: A = miR-21 reporter; B = DT40 TDP1 CPT; C = TDP1 inh; D = DT40 TDP1 no CPT; E = uPA surface inh
structure: O=C(O)c1ccc(CNC(=S)Nc2ccccc2)cc1
  A: 0%	B: -3%	C: 4%	D: -29%	E: 1%

structure: COc1nc(C)cc(C)c1S(=O)(=O)c1ccccc1C
  A: 4%	B: -2%	C: /	D: 0%	E: 1%

structure: CCC(C)Oc1nc(C)cc(C)c1S(=O)(=O)c1ccccc1C (configuration not stated)
  A: 1%	B: ?	C: -5%	D: 16µM*	E: 2%

structure: CCSc1nc(C)cc(C)c1S(=O)(=O)c1ccccc1C
  A: 1%	B: ?	C: 0%	D: 21µM*	E: 1%

structure: Cc1cc(C)c(S(=O)(=O)c2c(C)cccc2C)c(OCC(C)C)n1
  A: 18%	B: 23µM*	C: -4%	D: 13µM*	E: 5%
